# Yeast mating assay 2: variants of the scFv Ab-91

Source: Engelhart et al. 2022 (doi:10.1038/s41597-022-01779-4), MIT Lincoln Laboratory and A-Alpha Bio; data file from the FLAb repository.

Target peptide (SARS-CoV-2 spike, HR2 region): PDVDLGDISGINAS

The variants keep the light chain, the linker and the frameworks of Ab-91 (scFv order VL, a 15-residue (Gly4Ser)3 linker, VH).
VL: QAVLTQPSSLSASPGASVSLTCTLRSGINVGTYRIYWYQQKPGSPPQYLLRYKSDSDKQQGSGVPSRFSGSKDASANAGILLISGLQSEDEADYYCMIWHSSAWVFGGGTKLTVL
VH: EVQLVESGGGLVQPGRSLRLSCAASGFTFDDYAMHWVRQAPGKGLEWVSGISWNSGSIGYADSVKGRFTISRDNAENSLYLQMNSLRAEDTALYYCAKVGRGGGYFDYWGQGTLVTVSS

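The starting antibody came from a phage panning campaign against this peptide. Library AAYL51 holds single substitutions and randomly drawn double and triple substitutions in the CDRs. The assay is AlphaSeq: two haploid yeast populations carry antibody and antigen on their surface. Pairs that bind mate more often; barcode pairs of the diploids are counted by sequencing. A regression on co-assayed BCL2-family reference pairs converts the normalised counts of each replicate to an apparent Kd. There are three technical replicates.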

Changes read parent residue, position, new residue, counted from the first residue of the VH shown.
All variants listed here change T28 of the VH, counted from its first residue.
Each Kd is an estimate from the mating assay, the geometric mean of the replicates in which the pair was seen; lower is stronger.
An entry "nd" has no value in the source: the pair was not observed among the diploids in any replicate. This suggests poor binding but is not conclusive.
In this assay the parent's reference entry averaged 72 nM; its copy inside this library read 7.5 nM.

The variant T28I I51N Y105E gave nd (0 of 3 replicates; controls 1 of 9). The variant T28F S55Q R101G showed 3.8 µM (1 of 3 replicates; controls 1 of 9). With T28R M34T S52H the result was nd (0 of 3 replicates; controls 0 of 9). For F27W T28F S57L, the assay gave 20 µM (1 of 3 replicates; controls 0 of 9). The variant T28K D62I G102F gave 11 µM (3 of 3 replicates; controls 5 of 9).

For T28E S52T Y108F, the assay gave 1.7 µM (1 of 3 replicates; controls 0 of 9). For T28W Y108G, the assay gave 8.0 nM (3 of 3 replicates; controls 1 of 9). With T28G K65F G104V the result was 25 µM (3 of 3 replicates; controls 5 of 9). The variant T28S A61S gave 97 nM (3 of 3 replicates; controls 1 of 9). The variant G26Y T28D S52L gave 300 µM (2 of 3 replicates; controls 5 of 9).

With F27G T28W Y105G the result was 5.3 µM (3 of 3 replicates; controls 3 of 9). The variant T28G D62M G100P gave nd (0 of 3 replicates; controls 1 of 9). The variant F27Y T28P W53C gave 1.6 µM (2 of 3 replicates; controls 2 of 9). The variant T28K D30E Y32Q gave nd (0 of 3 replicates; controls 0 of 9). The variant T28L D30G K65Y gave 8.0 nM (3 of 3 replicates; controls 1 of 9).

The variant T28R I51P G59L gave 63 µM (2 of 3 replicates; controls 2 of 9). The variant T28K S57K Y105V showed 1.2 µM (1 of 3 replicates; controls 1 of 9). The variant T28V F29S K65F showed 40 µM (1 of 3 replicates; controls 1 of 9). For F27K T28D Y108R, the assay gave nd (0 of 3 replicates; controls 0 of 9). For T28K Y105K Y108G, the assay gave 200 nM (3 of 3 replicates; controls 3 of 9).

With T28K G103L G104C the result was nd (0 of 3 replicates; controls 0 of 9). With T28Q K65S Y105H the result was 2.3 µM (2 of 3 replicates; controls 0 of 9). The variant T28E N54H I58W gave 5.6 µM (3 of 3 replicates; controls 0 of 9). With T28F I58F G103C the result was 6.0 µM (1 of 3 replicates; controls 0 of 9). With T28G H35S G59H the result was 11 µM (3 of 3 replicates; controls 4 of 9).

With F27A T28F G50K the result was nd (0 of 3 replicates; controls 2 of 9). The variant T28R D30S gave 7.5 µM (1 of 3 replicates; controls 0 of 9). The variant T28Q I51H V99G showed 83 µM (3 of 3 replicates; controls 5 of 9). With T28D F29N D62N the result was 160 µM (2 of 3 replicates; controls 2 of 9). With T28V D30Q G104R the result was 5.7 nM (3 of 3 replicates; controls 3 of 9).

With T28L K65A G104S the result was 8.1 µM (1 of 3 replicates; controls 0 of 9). The variant T28W M34C V64Q showed nd (0 of 3 replicates; controls 0 of 9). With T28E A61L D107W the result was nd (0 of 3 replicates; controls 0 of 9). With T28Y D30Y D31S the result was nd (0 of 3 replicates; controls 0 of 9). The variant T28M I58W Y60Q gave nd (0 of 3 replicates; controls 0 of 9).

For T28Q G103C, the assay gave 11 nM (3 of 3 replicates; controls 1 of 9). With T28I Y32V I58C the result was 200 nM (3 of 3 replicates; controls 2 of 9). With T28Q M34T Y108D the result was 500 µM (2 of 3 replicates; controls 2 of 9). With T28V G50Y K65R the result was nd (0 of 3 replicates; controls 0 of 9). The variant T28H G102I G104E showed 1.2 µM (3 of 3 replicates; controls 4 of 9).

The variant T28F D31W I58M showed 14 nM (3 of 3 replicates; controls 0 of 9). The variant T28D D30V A61T showed 540 nM (3 of 3 replicates; controls 0 of 9). The variant T28C F29Q N54Y showed 11 µM (1 of 3 replicates; controls 1 of 9). The variant T28L S63T D107F showed 44 µM (3 of 3 replicates; controls 6 of 9). The variant T28P W53N N54R showed 49 µM (3 of 3 replicates; controls 2 of 9).

With T28F the result was 73 µM (2 of 3 replicates; controls 0 of 9). With T28N D31M A61N the result was 2.3 mM (1 of 3 replicates; controls 8 of 9). The variant T28W D31N S63C showed 25 nM (3 of 3 replicates; controls 0 of 9). The variant T28R F29Q R101G gave nd (0 of 3 replicates; controls 0 of 9). The variant T28L I51K S52H gave 210 µM (2 of 3 replicates; controls 5 of 9).

The variant T28A V99C D107P showed 14 nM (3 of 3 replicates; controls 7 of 9).

Empty control strains, which show no peptide, gave a signal in 21% of pairings with library AAYL51; the median was 34 µM and 95% of these signals were weaker than 1.8 µM. No background was subtracted. Also given: how often the same scFv was detected with the empty control strains.